# From patent publication EP3733170B1, “A SELECTIVE ANDROGEN RECEPTOR MODULATOR (SARM) COMPOUND FOR USE IN THE TREATMENT, PREVENTION, SUPPRESSION, OR INHIBITION OF A SKELETAL-RELATED EVENT (SRE) IN A SUBJECT HAVING BREAST CANCER” (dated 2026)
# The chains behind the UniProt entries cited, without tags or fusion partners.
# UniProt P06536, whole entry: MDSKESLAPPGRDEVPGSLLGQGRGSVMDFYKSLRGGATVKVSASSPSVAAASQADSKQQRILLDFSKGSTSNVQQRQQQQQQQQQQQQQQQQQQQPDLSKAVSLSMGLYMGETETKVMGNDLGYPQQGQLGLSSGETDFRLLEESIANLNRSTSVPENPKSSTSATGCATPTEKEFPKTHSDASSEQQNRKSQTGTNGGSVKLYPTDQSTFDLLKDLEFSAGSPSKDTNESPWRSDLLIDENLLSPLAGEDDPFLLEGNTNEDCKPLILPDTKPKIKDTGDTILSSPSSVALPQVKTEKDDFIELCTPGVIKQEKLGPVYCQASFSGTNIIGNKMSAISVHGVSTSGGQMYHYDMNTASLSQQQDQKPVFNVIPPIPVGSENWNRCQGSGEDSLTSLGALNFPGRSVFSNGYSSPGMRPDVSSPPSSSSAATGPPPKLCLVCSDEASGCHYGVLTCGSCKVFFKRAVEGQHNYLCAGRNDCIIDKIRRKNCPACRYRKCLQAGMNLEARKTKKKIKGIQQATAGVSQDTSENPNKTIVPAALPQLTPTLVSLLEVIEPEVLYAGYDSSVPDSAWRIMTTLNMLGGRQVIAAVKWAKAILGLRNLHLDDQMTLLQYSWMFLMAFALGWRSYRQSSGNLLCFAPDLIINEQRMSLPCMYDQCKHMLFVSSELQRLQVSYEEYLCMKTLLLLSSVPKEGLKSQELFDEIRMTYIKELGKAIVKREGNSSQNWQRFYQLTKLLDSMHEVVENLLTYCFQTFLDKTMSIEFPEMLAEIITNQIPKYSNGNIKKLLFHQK
# UniProt P22199, whole entry: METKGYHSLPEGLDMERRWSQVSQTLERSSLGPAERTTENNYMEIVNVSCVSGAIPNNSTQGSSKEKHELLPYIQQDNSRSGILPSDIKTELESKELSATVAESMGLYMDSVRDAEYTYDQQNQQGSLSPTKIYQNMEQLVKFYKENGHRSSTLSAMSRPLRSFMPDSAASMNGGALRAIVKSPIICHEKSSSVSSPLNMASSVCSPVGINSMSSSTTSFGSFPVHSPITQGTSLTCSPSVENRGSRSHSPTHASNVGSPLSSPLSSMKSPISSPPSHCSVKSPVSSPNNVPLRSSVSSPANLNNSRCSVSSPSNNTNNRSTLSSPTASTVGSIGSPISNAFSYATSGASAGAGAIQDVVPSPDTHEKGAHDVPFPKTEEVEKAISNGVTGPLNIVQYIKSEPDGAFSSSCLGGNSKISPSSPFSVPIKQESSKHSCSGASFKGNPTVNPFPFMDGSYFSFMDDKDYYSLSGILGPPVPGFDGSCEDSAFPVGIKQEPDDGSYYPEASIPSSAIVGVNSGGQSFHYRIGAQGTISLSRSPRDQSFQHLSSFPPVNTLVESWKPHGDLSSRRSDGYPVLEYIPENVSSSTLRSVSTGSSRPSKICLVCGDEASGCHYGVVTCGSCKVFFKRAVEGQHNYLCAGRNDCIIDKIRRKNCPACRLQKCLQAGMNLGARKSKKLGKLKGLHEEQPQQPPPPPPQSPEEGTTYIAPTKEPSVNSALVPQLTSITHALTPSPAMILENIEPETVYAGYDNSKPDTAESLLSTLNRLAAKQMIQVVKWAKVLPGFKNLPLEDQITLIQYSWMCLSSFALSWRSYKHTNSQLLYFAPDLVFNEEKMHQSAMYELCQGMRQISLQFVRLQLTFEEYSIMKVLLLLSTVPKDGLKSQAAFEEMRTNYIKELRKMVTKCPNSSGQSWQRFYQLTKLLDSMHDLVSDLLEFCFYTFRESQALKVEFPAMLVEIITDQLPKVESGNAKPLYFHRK
# UniProt Q62986, whole entry: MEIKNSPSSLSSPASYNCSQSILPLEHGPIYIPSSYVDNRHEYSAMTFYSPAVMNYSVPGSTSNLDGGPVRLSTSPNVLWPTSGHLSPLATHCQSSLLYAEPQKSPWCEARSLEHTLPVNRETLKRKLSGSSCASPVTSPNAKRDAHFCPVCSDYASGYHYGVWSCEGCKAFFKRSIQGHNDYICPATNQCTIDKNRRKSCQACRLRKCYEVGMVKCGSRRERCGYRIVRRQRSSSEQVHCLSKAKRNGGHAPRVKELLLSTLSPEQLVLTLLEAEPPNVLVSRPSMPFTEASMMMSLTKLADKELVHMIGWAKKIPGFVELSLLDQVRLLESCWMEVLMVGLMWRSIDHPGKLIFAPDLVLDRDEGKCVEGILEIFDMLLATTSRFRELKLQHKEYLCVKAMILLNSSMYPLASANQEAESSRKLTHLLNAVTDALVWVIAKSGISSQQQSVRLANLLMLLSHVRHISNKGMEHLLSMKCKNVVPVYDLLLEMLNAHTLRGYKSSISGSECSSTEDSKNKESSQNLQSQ
# UniProt P06211, whole entry: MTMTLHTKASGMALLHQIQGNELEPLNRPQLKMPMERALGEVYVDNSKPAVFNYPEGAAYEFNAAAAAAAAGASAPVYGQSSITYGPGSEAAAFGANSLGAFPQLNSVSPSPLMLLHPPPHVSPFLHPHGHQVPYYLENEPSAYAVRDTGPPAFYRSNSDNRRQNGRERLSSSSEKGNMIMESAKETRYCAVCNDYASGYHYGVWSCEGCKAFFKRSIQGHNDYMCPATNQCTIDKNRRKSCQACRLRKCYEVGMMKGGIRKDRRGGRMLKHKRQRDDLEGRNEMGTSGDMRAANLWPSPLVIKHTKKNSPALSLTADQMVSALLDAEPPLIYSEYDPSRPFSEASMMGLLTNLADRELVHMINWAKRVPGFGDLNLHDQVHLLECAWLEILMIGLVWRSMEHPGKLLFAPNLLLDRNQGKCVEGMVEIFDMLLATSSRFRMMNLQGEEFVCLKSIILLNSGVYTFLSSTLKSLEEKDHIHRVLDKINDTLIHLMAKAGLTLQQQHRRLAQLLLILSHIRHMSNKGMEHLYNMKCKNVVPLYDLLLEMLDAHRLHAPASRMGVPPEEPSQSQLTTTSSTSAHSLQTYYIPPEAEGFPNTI
# UniProt Q63449, whole entry: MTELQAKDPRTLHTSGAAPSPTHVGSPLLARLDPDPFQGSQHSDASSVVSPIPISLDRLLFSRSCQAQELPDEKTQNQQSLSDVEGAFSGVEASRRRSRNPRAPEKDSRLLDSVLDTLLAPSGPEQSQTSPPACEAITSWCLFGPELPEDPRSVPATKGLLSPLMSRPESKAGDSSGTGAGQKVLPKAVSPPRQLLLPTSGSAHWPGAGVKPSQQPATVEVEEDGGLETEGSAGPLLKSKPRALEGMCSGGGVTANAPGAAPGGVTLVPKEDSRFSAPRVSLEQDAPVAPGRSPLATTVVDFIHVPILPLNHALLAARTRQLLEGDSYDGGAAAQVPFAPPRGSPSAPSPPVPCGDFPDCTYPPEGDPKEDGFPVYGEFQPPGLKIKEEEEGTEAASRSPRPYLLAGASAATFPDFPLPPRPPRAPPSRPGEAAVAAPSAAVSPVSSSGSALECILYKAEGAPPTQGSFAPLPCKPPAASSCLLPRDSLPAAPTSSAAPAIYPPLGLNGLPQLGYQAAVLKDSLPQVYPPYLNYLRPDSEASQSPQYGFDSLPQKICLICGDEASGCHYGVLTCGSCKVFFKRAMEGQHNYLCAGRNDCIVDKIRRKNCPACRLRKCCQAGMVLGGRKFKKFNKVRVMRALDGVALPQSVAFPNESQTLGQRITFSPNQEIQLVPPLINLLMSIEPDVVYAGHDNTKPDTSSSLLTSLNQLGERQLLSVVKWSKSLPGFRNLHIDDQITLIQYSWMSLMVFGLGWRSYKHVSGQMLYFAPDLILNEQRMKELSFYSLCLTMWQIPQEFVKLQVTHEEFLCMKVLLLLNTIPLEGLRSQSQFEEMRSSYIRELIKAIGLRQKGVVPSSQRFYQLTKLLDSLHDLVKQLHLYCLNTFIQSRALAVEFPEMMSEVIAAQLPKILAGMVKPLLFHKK
# Legend:
# MDA-MB-231 cells = experiment: Cell morphology by light microscopy, cells stably transfected with AR; settings: 3 days of incubation
# [1] = system: MDA-MB-231-AR triple negative breast cancer cells; experiment: Triple negative breast cancer xenograft tumor growth; settings: 30 mg/kg orally, 35 days
# GR = GR (Rattus norvegicus, UniProt P06536); experiment: Nuclear hormone receptor transactivation (luciferase) in HEK-293 cells
# MR = MR (Rattus norvegicus, UniProt P22199); experiment: as above
# ER-β = ER-β (Rattus norvegicus, UniProt Q62986); experiment: as above
# ER-α = ER-α (Rattus norvegicus, UniProt P06211); experiment: as above
# PR = PR (Rattus norvegicus, UniProt Q63449); experiment: as above; settings: agonist mode
# [2] = system: HCC-38 triple negative breast cancer cells; experiment: Sulforhodamine B (SRB) cell viability assay in cells infected with AR or LacZ adenovirus; settings: AR positive cells; 3 days; charcoal stripped FBS or full serum
# [3] = system: MDA-MB-231 triple negative breast cancer cells; experiment: as above; settings: AR positive cells, 3 days; for growth inhibitory effects in the presence of bicalutamide: 10 µM bicalutamide; for cell growth inhibition: charcoal stripped FBS or full serum
# [4] = highest tested concentration (1 µM)
compound,measurement,setting,value
C[C@@](O)(COc1ccc(C#N)cc1)C(=O)Nc1ccc(C#N)c(C(F)(F)F)c1,altered morphology into a more anchorage-dependent phenotype,MDA-MB-231 cells,not
C[C@](O)(COc1ccc(C#N)cc1)C(=O)Nc1ccc(C#N)c(Cl)c1,altered morphology into a more anchorage-dependent phenotype,MDA-MB-231 cells,altered the morphology into a more anchored phenotype
same,toxicity or changes in body weight,[1],without any associated toxicity or changes in body weight
same,Uterus weight,[1]; data not shown,increased
same,GR-mediated transactivation (agonist mode),GR; all the tested concentrations,failed to activate
same,alteration of dexamethasone-induced GR-mediated transactivation (antagonist mode),GR; co-incubation with dexamethasone,failed to alter
same,MR-mediated transactivation (agonist mode),MR; all the tested concentrations,failed to activate
same,alteration of aldosterone-induced MR-mediated transactivation (antagonist mode),MR; co-incubation with aldosterone,failed to alter
same,alteration of estradiol-induced ER-β activity (antagonist mode),ER-β; co-incubation with estradiol,failed to alter
same,ER-β activation (agonist mode),ER-β; [4],failed to activate
same,alteration of estradiol-induced ER-α activity (antagonist mode),ER-α; co-incubation with estradiol,failed to alter
same,ER-α activation (agonist mode),ER-α; [4],failed to activate
same,PR agonist activity (in words),PR,moderate potency partial agonist activity
same,increase of transactivation of PR,PR; 1 µM,3 fold
same,increase of transactivation of PR,PR; 10 µM,8 fold
C[C@]12CCC(=O)C[C@@H]1CC[C@@H]1[C@@H]2CC[C@]2(C)[C@@H](O)CC[C@@H]12,cell growth inhibition,[2],inhibited
same,growth inhibitory effects in the presence of bicalutamide,[3],weakened growth inhibitory effects
same,cell growth inhibition,[3],inhibited
same,altered morphology into a more anchorage-dependent phenotype,MDA-MB-231 cells,altered the morphology of MDA-MB-231 cells into more anchorage dependent and differentiated cells
C[C@](O)(COc1ccc(C#N)cc1)C(=O)Nc1ccc(C#N)c(C(F)(F)F)c1,cell growth inhibition,[2],inhibited
same,growth inhibitory effects in the presence of bicalutamide,[3],weakened growth inhibitory effects
same,cell growth inhibition,[3],inhibited
same,altered morphology into a more anchorage-dependent phenotype,MDA-MB-231 cells,altered the morphology into a more anchored phenotype
